pIC50: −log10 of the molar value.
Target: PAR1 (Homo sapiens (Human), UniProt P25116)
Assay: Par-1 FLIPR assay (calcium, HEK 293 cells, PAR1 activating peptide)
Type: cell-based
Conditions: read-out: Par-1 FLIPR IC50, PAR1 selective receptor-activating peptide at 80% activation

The chains behind the UniProt entries cited, without tags or fusion partners. Residues count along the entry.
UniProt P25116, 22-425 limits assumed: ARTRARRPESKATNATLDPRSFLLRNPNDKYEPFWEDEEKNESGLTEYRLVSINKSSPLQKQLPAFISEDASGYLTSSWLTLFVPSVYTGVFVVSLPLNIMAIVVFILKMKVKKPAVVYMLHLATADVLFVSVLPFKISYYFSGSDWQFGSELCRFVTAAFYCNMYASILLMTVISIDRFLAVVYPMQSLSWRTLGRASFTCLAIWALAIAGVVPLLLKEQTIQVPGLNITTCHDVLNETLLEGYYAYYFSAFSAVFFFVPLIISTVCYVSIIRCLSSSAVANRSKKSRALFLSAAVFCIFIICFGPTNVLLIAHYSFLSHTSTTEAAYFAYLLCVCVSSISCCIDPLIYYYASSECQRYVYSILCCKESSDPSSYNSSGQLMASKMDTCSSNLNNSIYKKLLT

| SMILES | pIC50 |
| --- | --- |
| C[C@H]1OC(=O)[C@]2(n3ccnc3)CC(F)(F)[C@@H](C)[C@H](/C=C/c3ccc(-c4ccccc4C#N)cn3)[C@H]12 | 8.37 |
| C[C@H]1OC(=O)[C@]2(n3cc(-c4ccc(N(C)C)cc4)nn3)CC(F)(F)[C@@H](C)[C@H](/C=C/c3ccc(-c4ccccc4C#N)cn3)[C@H]12 | 8.01 |
| C[C@H]1OC(=O)[C@]2(n3ccnn3)CC(F)(F)[C@@H](C)[C@H](/C=C/c3ccc(-c4ccccc4C#N)cn3)[C@H]12 | 8.51 |

From patent US9340530B2, “Preparation and use of bicyclic himbacine derivatives as PAR-1 receptor antagonists” (Merck, Sharp & Dohme Corp., priority 2012, dated 2016)
